Laboratory results from patent US20150011566A1, “N-PHENYLPIPERAZINE DERIVATIVES THAT ARE ANTAGONISTS OF A1A, A1D ADRENOCEPTORS AND 5-HT1A RECEPTORS FOR THE TREATMENT OF BENIGN PROSTATE HYPERPLASIA, PHARMACEUTICAL COMPOSITIONS CONTAINING THE SAME” (UNIVERSIDADE FEDERAL DO RIO DE JANEIRO-UFRJ, priority 2012, published 2015).
Like-named read-outs stand apart in the source and are kept apart here.

The chains behind the UniProt entries cited, without tags or fusion partners.
UniProt P15823, whole entry: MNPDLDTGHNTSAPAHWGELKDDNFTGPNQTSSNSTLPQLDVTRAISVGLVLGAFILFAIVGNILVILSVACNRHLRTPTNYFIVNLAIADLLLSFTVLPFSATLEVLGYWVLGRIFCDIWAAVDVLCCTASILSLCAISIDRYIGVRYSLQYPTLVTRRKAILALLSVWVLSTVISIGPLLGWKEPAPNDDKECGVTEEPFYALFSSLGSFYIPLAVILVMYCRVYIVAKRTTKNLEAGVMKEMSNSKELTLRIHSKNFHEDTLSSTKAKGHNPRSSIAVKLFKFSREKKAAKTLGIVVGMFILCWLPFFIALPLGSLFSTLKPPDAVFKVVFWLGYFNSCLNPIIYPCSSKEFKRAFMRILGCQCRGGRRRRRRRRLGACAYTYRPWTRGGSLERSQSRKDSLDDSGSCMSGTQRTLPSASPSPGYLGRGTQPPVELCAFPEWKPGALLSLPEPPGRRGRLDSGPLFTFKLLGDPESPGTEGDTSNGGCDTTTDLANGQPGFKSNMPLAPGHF

Experiments:
α1A adrenoceptors = biological target: T1, α1A adrenoceptors (Oryctolagus cuniculus, UniProt O02824); experiment: Binding of [3H]-prazosin to α1A adrenoceptors (rabbit liver membranes); settings: saturation assay
T1 construct: from tissue; host or cells: rabbit liver membranes
T1 sequence (O02824 1-466): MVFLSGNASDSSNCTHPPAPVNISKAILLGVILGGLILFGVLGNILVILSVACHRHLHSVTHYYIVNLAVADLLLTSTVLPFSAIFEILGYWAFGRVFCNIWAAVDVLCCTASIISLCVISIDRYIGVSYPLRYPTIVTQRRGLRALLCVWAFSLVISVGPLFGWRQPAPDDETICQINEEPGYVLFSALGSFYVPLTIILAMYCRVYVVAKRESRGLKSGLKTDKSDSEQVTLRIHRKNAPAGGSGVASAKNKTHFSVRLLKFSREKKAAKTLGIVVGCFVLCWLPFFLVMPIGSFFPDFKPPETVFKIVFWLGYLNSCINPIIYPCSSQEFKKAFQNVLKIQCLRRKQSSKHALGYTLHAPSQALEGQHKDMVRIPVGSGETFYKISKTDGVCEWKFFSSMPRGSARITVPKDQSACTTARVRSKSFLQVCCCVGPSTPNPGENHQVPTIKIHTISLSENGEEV
Description: Following the protocol described previously in the literature, membrane preparations from rabbit liver homogenates were obtained. Such membrane preparations are enriched in adrenoceptor subtype α1A. The tissue obtained as described above (˜30 g) was naturally thawed, immersed in thawing solution (0.25 M sucrose, 1 mM EGTA and 5 mM Tris (pH 7.4)) freezing. Then, the tissue was transferred to a petri dish on ice containing solution for homogenizing liver (2 mM EDTA, 100 mM NaCl and 50 mM Tris (pH 7.4)) freezing. The liver was then carefully cut by ignoring the most fibrous part.
Then, the material was transferred into a beaker where with the aid of Ultra-Turrax homogenizer (speed 24,000 RPM), the tissue was homogenized with the same buffer solution at a ratio of 6 parts of the solution to 1 part material. The material was homogenized three times for 20 seconds; in the intervals the solution was allowed to stand for 1 minute on ice. […]
In both assays, membrane preparations were incubated at 0° C. for 45 minutes. […] The radioactivity retained on the filters was then determined in a liquid scintillation counter (Packard Tri-Carb 1600 TR).
This procedure aims to obtain a saturation curve with less expenditure of radioactive substances and biological materials. […] This can be seen by the gradual decrease of radioactivity retained on the filters is detected by the counter liquid scintillation. […]

α1B adrenoceptors = biological target: T2, α1B adrenoceptors (Rattus norvegicus, UniProt P15823); experiment: Binding of [3H]-prazosin to α1B adrenoceptors (rat liver membranes); settings: saturation assay, one site
T2 construct: from tissue; host or cells: rat liver membranes
Description: Following the protocol described previously in the literature membrane preparations from rat liver homogenates were obtained. Such membrane preparations are enriched in the adrenoceptor subtype α1B. The tissues obtained as described above (4 Rat livers corresponding to ˜30 g) were thawed and homogenized perforated similarly performed for rabbit liver. The homogenate obtained was filtered through four layers of gauze and then subjected to centrifugation 5,000×g for 20 minutes at 4° C., yielding a supernatant which was subsequently ultracentrifuged at 100,000×g for 60 minutes at 4° C., obtaining a pellet. This pellet was resuspended in buffer free of NaCl and subjected to a further […] under the same conditions.
Binding assays were standardized for α1B adrenoceptors in the same way adrenoceptor binding assays for α1A according to the literature, i.e. saturation and competition assays were performed on membrane preparations from rat liver, in this case using […] protein per tube contained […] suspension, in addition to various concentrations of LDT's (10^−9-10^−6 M).

[3H]-prazosin [reference compound]
Kd (α1A adrenoceptors; read-out: Kd, high affinity site): 0.46 nM
Kd (α1A adrenoceptors; read-out: Kd, low affinity site): 56.5 nM
Kd (α1B adrenoceptors): 0.34 nM
